Consider three substances from patent publication US8569343B2, “Oligomer-opioid agonist conjugates” (Nektar Therapeutics, priority 2007, dated 2013).

The chains behind the UniProt entries cited, without tags or fusion partners. Where a name states a change or a piece, a line headed by the entry shows the natural chain unless it says otherwise.
UniProt P41145: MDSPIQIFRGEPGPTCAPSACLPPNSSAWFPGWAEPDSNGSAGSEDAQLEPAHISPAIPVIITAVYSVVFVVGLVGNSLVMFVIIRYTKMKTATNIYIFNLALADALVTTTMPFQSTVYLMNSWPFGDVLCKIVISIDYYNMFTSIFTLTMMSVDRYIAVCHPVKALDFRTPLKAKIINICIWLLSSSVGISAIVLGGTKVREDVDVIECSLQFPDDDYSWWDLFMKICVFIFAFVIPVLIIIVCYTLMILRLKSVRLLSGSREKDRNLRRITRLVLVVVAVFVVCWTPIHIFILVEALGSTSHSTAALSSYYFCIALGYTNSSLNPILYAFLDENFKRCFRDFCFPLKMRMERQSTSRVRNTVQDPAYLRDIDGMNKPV

This assay concerns the target T1, cloned human kappa opioid receptor (Homo sapiens, UniProt P41145).
T1 construct: expressed in transfected cells; host or cells: CHO cells
Type of assay: cell-based.
α-6-mPEG3-O-codeine yielded an EC50 greater than 500 µM.
With α-6-mPEG7-O-codeine the figure was greater than 500 µM.
With α-6-mPEG9-O-codeine the figure was greater than 500 µM.

The term EC50 denotes the concentration that produces a half-maximal response. Lower therefore signals a more potent agent.
